Data from patent US20260137794A1, “LIGAND-DRUG CONJUGATE AND USE THEREOF” (SYSTIMMUNE, INC., priority 2022, published 2026).

How the values were obtained:
Type in all cases: cell-based, Human
A431 = test: CD33 cell killing experiment by MTS method, A431; conditions: A431, CD33 negative, 5 days, read-out: Test drug IC50
Protocol: (§1) Pharmacodynamic test at cellular level: cell plating was performed on a 96-well plate in a certain density. After the cells adhered to the wall (usually taking at least 4 h), a series of drugs in several folds of dilution were added to each well plate to act for a certain period of time, for killing the cells. At the end of action of the drugs, a certain amount of MTS was added to react at 37° C. under 5% CO2 for 1-4 h. After color development using the MTS reagent, the OD 490 nm absorbance value was detected using a microplate reader, and then the IC50 for cell killing was analyzed and calculated.
(§2) Before addition, according to the concentration of each test sample, a drug (5×mother liquor concentration) was prepared using a preheated 1% FBS culture medium according to the initial concentration of 5.0 μM, and then diluted according to 10 folds of gradient concentration, totaling 8 detection points, followed by standing for later use. During the preparation, each concentration was uniformly mixed using an oscillator, specifically, oscillating for 2-3 sec at a time, with an interval of 1 sec, and then oscillating again, repeating 2-3 times.
(§3) The final concentration of the antibody and the antibody conjugated drug was 0 (Vehicle), 0.6 pM, 4.25 pM, 29.75 pM, 0.21 nM, 1.46 nM, 10.20 nM, 71.43 nM, 500 nM.
(§4) • 1) Cell revival: after preheating in a 37° C.′ water bath, 9 mL of the culture medium was taken and put in a centrifuge tube for later use; the cells were taken out from liquid nitrogen, immediately quickly shaked at 37° C.′ to fully thaw, then transferred into the centrifuge tube, and centrifuged at 1000 rpm for 3 min at room temperature: the supernatant was discarded, and the precipitate was re-suspended with 1 mL of complete culture medium, where the process should be gentle, to prevent bubbles from being blown out, thereby reducing damage to the cells; the cells were transferred into a culture flask, and cultivated in a cell incubator at 37° C., 5% CO2 and 95% relative humidity. […]

CMK = test: CD33 cell killing experiment by MTS method, CMK; conditions: CD33 moderate expression, 5 days, read-out: Test drug IC50
Protocol: as §1, §2, §3, §4

[1] = system: multiple AML cell strains; test: CD33 cell killing experiment, conclusion over the cell models; conditions: in words; CD33 high-expression, moderate-expression and negative cell lines
Protocol: as §1, §4

HEL92.1.7 = test: CD33 cell killing experiment by MTS method, HEL92.1.7; conditions: HEL92.1.7, CD33 high expression, 5 days, read-out: Test drug IC50
Protocol: as §1, §2, §3, §4

B1: ANTI-CD33-R01-1 (2) - Ex01 (8) (conjugate)
light: DIQLTQSPSTLSASVGDRVTITCRASESLDNYGIRFLTWFQQKPGKAPKLLMYAASNQGSGVPSRFSGSGSGTEFTLTISSLQPDDFATYYCQQTKEVPWSFGQGTKVEVKRTVAAPSVFIFPPSDEQLKSGTASVVCLLNNFYPREAKVQWKVDNALQSGNSQESVTEQDSKDSTYSLSSTLTLSKADYEKHKVYACEVTHQGLSSPVCTKSFNRGEC
heavy: EVQLVQSGAEVKKPGSSVKVSCKASGYTITDSNIHWVRQAPGQSLEWIGYIYPYNGGTDYNQKFKNRATLTVDNPTNTAYMELSSLRSEDTAFYYCVNGNPWLAYWGQGTLVTVSSASTKGPSVFPLAPSSKSTSGGTAALGCLVKDYFPEPVTVSWNSGALTSGVHTFPAVLQSSGLYSLSSVVTVPSSSLGTQTYICNVNHKPSNTKVDKRV[human IgG1 Fc not spelt out]
For B1, the IC50 (A431) was 14.7 nM, the IC50 (CMK) was 2.52 nM and the “in vitro sensitivity of the multiple AML tumor cell strains, compared with mono-drug ADC ANTI-CD33-Ex01 (10)” value [1] was “significantly better in vitro sensitivity”. The IC50 (HEL92.1.7) was 2.14 nM.
